Assay results taken from US12396942B2, “Seed extract of Annona cherimola” (CLR-Chemisches Laboratorium Dr. Kurt Richter GmbH, priority 2019, dated 2025).

Sequences of proteins named here, by UniProt entry; tags and fusion partners are left off.
UniProt P34972, whole entry: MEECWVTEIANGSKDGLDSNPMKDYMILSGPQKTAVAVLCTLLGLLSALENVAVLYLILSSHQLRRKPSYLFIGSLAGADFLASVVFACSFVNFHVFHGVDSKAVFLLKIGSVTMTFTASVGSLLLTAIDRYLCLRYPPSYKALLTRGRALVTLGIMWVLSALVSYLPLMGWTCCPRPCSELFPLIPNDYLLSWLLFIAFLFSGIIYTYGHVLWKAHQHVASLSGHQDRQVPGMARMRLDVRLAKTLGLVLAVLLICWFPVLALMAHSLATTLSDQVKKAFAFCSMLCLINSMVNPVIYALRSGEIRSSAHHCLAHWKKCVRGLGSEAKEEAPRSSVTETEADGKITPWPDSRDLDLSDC

Target: T1, human cannabinoid receptor 2 (CB2) (Homo sapiens, UniProt P34972)
T1 construct: expressed in transfected cells; host or cells: 293T-CB2 cells, stably transfected with CB2 cDNA and transiently transfected with CRE-luc
Test: CB2 agonistic activity, CRE-luc reporter in 293T-CB2-CRE-luc cells stimulated with Forskolin
Type: cell-based
Conditions: 15 min pre-treatment, then 10 μM Forskolin for six hours, expressed as % of Forskolin stimulation, FIG. 1

Question: For Cc1c(C(=O)c2cccc3ccccc23)c2cccc3c2n1[C@H](CN1CCOCC1)CO3 [WIN-55,212-2], which “CB2 agonist activity as inhibition of Forskolin-induced CRE-Luc activity” value is on record?
Answer: acts as a CB2 agonist and partially antagonizes the effect of Forskolin
